Legend:
[1] = target: T1, Kappa-type opioid receptor (Cavia porcellus, UniProt P41144); assay: Compound was evaluated for the Opioid receptor kappa 1 affinity using guinea pig brain membranes.
Mus musculus [2] = organism: Mus musculus; assay: Antagonist Ke values of approximately 15 nM which are indicative of k receptor antagonism on field-stimulated mouse vas deferens.
Mus musculus [3] = organism: Mus musculus; assay: Molar potency ratio relative to the standard agonist EKC on field-stimulated mouse vas deferens
Mus musculus [4] = assay: Anti-nociceptive activity (Analgesia reversed by 3 mg/kg of naloxone) after administration through the subcutaneous route to female mice.
[5] = target: T1, Kappa-type opioid receptor; assay: Compound was evaluated for the opioid receptor kappa affinity using guinea pig brain membranes.

By UniProt entry, the sequences of proteins in these tests, tags left out. Where a name states a change or a piece, a line headed by the entry shows the natural chain unless it says otherwise.
UniProt P41144: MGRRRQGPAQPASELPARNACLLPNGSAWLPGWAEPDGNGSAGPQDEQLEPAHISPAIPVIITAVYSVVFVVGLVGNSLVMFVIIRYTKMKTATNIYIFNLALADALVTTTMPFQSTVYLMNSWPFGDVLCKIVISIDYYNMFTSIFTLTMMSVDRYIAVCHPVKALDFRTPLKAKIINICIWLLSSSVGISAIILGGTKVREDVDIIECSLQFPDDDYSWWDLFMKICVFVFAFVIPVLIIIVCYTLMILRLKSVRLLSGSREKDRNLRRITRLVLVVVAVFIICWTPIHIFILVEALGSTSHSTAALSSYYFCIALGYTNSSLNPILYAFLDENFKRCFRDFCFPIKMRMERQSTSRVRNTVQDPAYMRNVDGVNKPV

Row | SMILES | IC50 [1] [nM] | Ke naloxone (Mus musculus [2]) [nM] | Potency vs EKC (Mus musculus [3]) | ED50 (Mus musculus [4]) [mg/kg] | IC50 [5] [nM]
1 | C[C@@H](CN1CCCC1)N(C)C(=O)Cc1ccc(Cl)c(Cl)c1 [listing 1 of 2 here] | 53.2 |  |  |  | 
2 | CC(C)[C@@H](CN1CCCC1)N(C)C(=O)Cc1ccc(Cl)c(Cl)c1 [listing 1 of 2 here] |  | 14.9 | 4.3 |  | 
3 | CN(C(=O)Cc1ccc(Cl)c(Cl)c1)[C@H](CN1CCCC1)c1ccccc1 | 6.9 | 17.8 | 16.1 | 0.004 | 
4 | CN(C(=O)Cc1ccc(Cl)c(Cl)c1)C1CCCCC1N1CCCC1 (stereo not drawn) |  | 15.5 | 0.11 | 1.1 | 96
5 | C[C@@H]([C@H](C)N(C)C(=O)Cc1ccc(Cl)c(Cl)c1)N1CCCC1 [listing 1 of 2 here] |  |  |  |  | 84.6
6 | CN(C(=O)Cc1ccc(Cl)c(Cl)c1)[C@H](CN1CCCC1)C(C)(C)C |  | 10.8 | 2.5 |  | 24.3
7 | C[C@@H](CN(C)C(=O)Cc1ccc(Cl)c(Cl)c1)N1CCCC1 [listing 1 of 2 here] |  |  |  |  | 1540
8 | C[C@H]([C@H](C)N(C)C(=O)Cc1ccc(Cl)c(Cl)c1)N1CCCC1 |  |  |  |  | 3410
9 | CC(C)[C@@H](CN1CCCC1)N(C)C(=O)Cc1ccc(Cl)c(Cl)c1 [listing 2 of 2 here] | 6.3 |  |  |  | 
10 | C[C@@H]([C@H](C)N(C)C(=O)Cc1ccc(Cl)c(Cl)c1)N1CCCC1 [listing 2 of 2 here] |  | 19.1 | 0.013 |  | 
11 | C[C@@H](CN1CCCC1)N(C)C(=O)Cc1ccc(Cl)c(Cl)c1 [listing 2 of 2 here] |  | 17.3 | 0.14 |  | 
12 | C[C@H](CN1CCCC1)N(C)C(=O)Cc1ccc(Cl)c(Cl)c1 |  |  |  |  | 10000
13 | CN(C(=O)Cc1ccc(Cl)c(Cl)c1)C(C)(C)CN1CCCC1 |  |  | 0.004 |  | 2060
14 | C[C@@H](CN(C)C(=O)Cc1ccc(Cl)c(Cl)c1)N1CCCC1 [listing 2 of 2 here] |  | 25 | 0.002 |  | 
15 | CN(CCN1CCCC1)C(=O)Cc1ccc(Cl)c(Cl)c1 |  |  |  |  | 6120

Source: ChEMBL document CHEMBL1125719, “2-(3,4-Dichlorophenyl)-N-methyl-N-[2-(1-pyrrolidinyl)-1-substituted- ethyl]-acetamides: the use of conformational analysis in the development of a novel series of potent opioid kappa agonists” (1991)
